Laboratory results reported in ChEMBL document CHEMBL3784975, “Derivatization of agelastatin A leading to bioactive analogs and a trifunctional probe” (Bioorg Med Chem Lett, 2016).

Key:
[1] = tested on: Plasma; assay: Metabolic stability in human plasma assessed as drug recovery; format: ADME, cell-free
[2] = Plasma protein binding in human by liquid chromatography-mass spectrometric analysis; format: ADME, cell-free

`CN1C(=O)N[C@H]2[C@@H]3NC(=O)c4ccc(Br)n4[C@@H]3C[C@]21O` [AGELASTATIN A] showed a Drug recovery [1] of 99.2% and a PPB [2] of 23.9%.
